Measurements published in patent US6596499B2, “Membrane molecule indicator compositions and methods” (The Netherlands Cancer Institute, priority 2000, dated 2003).

Chains of the proteins cited; added tags and fusions are not shown.
UniProt P21452, whole entry: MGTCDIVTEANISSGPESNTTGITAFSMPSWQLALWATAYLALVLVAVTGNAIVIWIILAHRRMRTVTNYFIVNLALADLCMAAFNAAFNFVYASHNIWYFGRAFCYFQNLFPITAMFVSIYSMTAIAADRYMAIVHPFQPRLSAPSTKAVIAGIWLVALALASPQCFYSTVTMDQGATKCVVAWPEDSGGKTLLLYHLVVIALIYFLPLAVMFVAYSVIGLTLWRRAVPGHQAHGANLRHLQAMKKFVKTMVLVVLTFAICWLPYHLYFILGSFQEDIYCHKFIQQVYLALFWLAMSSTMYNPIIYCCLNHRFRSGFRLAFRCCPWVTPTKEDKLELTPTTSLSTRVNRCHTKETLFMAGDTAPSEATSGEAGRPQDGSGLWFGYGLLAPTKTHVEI

Target: wild-type human NK2 receptors (Homo sapiens, UniProt P21452)
Settings: short pulses of agonist from puffer pipette, n=60

Substance: neurokinin A [NKA]
- decay of translocation response between stimuli: 45 ± 7 s
